# Experiments:
# By UniProt entry, the sequences of proteins in these tests, tags left out.
# UniProt P10635, whole entry: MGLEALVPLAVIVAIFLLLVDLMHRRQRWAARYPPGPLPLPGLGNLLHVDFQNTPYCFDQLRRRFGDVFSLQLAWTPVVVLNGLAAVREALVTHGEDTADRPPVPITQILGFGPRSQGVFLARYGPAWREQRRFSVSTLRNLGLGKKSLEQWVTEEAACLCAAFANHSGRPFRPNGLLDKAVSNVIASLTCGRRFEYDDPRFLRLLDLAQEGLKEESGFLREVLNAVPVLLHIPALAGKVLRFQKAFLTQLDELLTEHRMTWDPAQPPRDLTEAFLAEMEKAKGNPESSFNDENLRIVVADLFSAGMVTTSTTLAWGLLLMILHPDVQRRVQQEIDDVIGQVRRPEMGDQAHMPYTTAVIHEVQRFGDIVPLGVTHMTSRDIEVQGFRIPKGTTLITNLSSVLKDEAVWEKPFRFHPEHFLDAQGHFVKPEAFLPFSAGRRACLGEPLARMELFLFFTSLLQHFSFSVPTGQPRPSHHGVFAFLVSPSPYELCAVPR
# UniProt P11712, whole entry: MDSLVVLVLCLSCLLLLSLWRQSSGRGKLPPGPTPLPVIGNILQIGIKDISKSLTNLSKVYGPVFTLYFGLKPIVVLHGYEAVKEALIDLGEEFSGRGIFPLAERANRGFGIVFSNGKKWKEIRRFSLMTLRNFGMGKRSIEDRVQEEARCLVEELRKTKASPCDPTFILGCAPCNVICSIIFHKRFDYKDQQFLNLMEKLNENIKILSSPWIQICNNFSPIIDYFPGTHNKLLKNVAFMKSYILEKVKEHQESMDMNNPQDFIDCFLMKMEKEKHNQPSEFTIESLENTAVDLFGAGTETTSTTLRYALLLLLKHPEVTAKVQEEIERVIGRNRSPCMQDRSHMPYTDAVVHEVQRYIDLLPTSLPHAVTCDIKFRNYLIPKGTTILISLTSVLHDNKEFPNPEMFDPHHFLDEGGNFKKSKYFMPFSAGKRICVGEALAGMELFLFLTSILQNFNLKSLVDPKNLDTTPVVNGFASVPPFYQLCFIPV
# Cytochrome P450 2D6 = Cytochrome P450 2D6 (Homo sapiens, UniProt P10635)
# Cytochrome P450 2C9 = Cytochrome P450 2C9 (Homo sapiens, UniProt P11712)
smiles,measurement,setting,value
O=C(NCc1ccc(S(=O)(=O)c2cc(F)cc(F)c2)cc1)c1ccc2nccn2c1,IC50,Cytochrome P450 2D6,> 10 µM
same,IC50,Cytochrome P450 2C9,0.2 µM

# Reference: ChEMBL document CHEMBL3865840, “Minimizing CYP2C9 Inhibition of Exposed-Pyridine NAMPT (Nicotinamide Phosphoribosyltransferase) Inhibitors” (J Med Chem, 2016)
